Earlier results, collected in publication PMC10934121 (Molecules, 2024).

System: monoamine oxidase B
Details: cited from earlier work

O=C1N=c2ccccc2=C1O [Isatin, 3-hydroxy-2H-indol-2-one]
Inhibition of monoamine oxidase B: potent inhibitor
